US10953027B2, “Active agents and methods of their use for the treatment of metabolic disorders and nonalcoholic fatty liver disease” (Flagship Pioneering Innovations V, Inc., priority 2018, dated 2021)

Columns and labels:
[1] = tested on: Male FATZO mice; assay: In vivo FATZO DM2/obesity study (Example 5); settings: 0.045% in diet, after 28 days; blood glucose 0-120 minutes
[2] = tested on: Male DIO mice; assay: In vivo evaluation for glucose disposal and lipidemia in DIO mice (Example 11); settings: 0.045% in HFD, OGTT day 28, glucose 2.0 g/kg PO

**Q.** With `CN(CCOc1ccc(CC2SC(=O)NC2=O)cc1)c1ccccn1` (centres unmarked) [Rosiglitazone, rosiglitazone, reference compound] as the molecule, how does the “OGTT (AUC)” value [1] read?
**A.** 25222

**Q.** What about the “glucose AUC (0-120 min)” value [2] of the same molecule?
**A.** 24540.0 ± 806.3 mg/dL/min
